What was measured:
HDAC5 = HDAC5 (Homo sapiens, UniProt Q9UQL6); assay: HDAC activity assay; conditions: read-out: IC50 HDAC5; 10-point dose–response, duplicate
HDAC9 = HDAC9 (Homo sapiens, UniProt Q9UKV0); assay: HDAC activity assay; conditions: read-out: IC50 HDAC9; 10-point dose–response, duplicate

The chains behind the UniProt entries cited, without tags or fusion partners. Where a name states a change or a piece, a line headed by the entry shows the natural chain unless it says otherwise.
UniProt Q9UQL6: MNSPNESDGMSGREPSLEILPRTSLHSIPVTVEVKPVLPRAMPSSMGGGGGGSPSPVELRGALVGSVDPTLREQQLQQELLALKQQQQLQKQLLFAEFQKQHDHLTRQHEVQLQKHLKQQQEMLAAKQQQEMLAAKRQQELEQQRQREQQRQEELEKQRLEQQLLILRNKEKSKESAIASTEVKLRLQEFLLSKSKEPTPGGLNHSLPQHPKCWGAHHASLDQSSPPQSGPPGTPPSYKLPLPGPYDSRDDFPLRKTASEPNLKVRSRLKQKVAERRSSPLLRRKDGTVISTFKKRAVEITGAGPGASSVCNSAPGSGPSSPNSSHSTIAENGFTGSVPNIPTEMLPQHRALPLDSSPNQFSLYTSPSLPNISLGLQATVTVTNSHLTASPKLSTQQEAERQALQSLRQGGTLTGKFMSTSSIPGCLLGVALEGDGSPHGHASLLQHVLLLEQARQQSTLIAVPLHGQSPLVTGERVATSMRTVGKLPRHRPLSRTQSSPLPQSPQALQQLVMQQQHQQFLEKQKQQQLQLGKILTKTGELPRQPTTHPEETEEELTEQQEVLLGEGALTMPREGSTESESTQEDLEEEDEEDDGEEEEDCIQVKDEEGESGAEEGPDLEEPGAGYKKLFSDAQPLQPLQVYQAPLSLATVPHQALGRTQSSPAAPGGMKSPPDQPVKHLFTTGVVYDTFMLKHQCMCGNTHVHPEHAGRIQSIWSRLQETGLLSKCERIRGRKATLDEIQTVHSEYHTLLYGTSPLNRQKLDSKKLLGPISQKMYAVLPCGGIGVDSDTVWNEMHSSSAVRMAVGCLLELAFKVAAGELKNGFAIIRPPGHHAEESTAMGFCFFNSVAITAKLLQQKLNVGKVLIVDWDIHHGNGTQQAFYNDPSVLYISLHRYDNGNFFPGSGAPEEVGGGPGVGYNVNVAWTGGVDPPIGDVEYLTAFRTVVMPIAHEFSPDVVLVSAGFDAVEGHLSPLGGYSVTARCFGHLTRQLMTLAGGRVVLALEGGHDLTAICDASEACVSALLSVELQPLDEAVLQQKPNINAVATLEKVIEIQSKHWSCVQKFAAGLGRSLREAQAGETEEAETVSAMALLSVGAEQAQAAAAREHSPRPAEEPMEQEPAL
UniProt Q9UKV0: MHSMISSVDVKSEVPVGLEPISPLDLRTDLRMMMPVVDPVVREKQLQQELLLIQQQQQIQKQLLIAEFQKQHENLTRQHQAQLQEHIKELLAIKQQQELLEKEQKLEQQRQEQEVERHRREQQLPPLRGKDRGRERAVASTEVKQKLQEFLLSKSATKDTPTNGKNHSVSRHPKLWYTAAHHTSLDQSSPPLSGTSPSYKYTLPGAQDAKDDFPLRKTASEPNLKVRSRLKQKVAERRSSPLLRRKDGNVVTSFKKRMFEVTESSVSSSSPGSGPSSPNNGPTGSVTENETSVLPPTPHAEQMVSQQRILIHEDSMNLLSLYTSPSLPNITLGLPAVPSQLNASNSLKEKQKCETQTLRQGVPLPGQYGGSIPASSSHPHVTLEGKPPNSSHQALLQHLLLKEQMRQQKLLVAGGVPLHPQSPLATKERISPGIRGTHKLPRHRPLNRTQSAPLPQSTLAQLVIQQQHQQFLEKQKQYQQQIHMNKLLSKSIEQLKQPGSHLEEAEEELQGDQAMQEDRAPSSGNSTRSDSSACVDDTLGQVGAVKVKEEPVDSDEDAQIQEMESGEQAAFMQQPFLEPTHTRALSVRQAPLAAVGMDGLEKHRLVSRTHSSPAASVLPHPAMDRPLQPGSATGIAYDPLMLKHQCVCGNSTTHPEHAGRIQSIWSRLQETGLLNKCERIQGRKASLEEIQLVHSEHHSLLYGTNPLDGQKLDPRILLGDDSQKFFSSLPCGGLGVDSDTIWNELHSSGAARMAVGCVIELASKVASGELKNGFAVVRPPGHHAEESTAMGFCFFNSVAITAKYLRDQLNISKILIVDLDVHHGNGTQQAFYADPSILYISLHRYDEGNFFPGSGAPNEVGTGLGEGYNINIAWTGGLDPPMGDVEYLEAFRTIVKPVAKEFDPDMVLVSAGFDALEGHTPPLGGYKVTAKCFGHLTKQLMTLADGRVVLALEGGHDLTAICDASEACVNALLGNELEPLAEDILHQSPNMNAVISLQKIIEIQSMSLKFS

IC50 (HDAC5): 1.18 µM | IC50 (HDAC9): 5.2 µM
Compound: CC(/C=C/C(=O)NO)=C\[C@@H](C)C(=O)c1ccc(N(C)C)cc1 [TSA, trichostatic acid]

From paper PMC5664514 (Proceedings of the National Academy of Sciences of the …, 2017)
